Measured values published in ChEMBL document CHEMBL1145259, “Arylacetamide kappa opioid receptor agonists with reduced cytochrome P450 2D6 inhibitory activity” (Bioorg Med Chem Lett, 2005).

Amino acid sequences for entries named in this document (tags omitted). A change or cut given only in a name is not applied to a line headed by its entry.
UniProt P41145: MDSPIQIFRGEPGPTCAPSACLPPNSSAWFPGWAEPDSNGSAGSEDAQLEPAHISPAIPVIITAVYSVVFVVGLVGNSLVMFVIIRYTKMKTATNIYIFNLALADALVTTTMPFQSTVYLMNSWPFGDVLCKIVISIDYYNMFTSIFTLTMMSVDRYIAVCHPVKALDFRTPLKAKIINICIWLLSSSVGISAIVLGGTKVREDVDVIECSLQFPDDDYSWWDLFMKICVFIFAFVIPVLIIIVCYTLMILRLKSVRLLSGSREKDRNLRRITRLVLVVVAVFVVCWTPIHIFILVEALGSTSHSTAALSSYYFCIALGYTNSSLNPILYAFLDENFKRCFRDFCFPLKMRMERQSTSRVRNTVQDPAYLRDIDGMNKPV
UniProt P35372, whole entry, looked up: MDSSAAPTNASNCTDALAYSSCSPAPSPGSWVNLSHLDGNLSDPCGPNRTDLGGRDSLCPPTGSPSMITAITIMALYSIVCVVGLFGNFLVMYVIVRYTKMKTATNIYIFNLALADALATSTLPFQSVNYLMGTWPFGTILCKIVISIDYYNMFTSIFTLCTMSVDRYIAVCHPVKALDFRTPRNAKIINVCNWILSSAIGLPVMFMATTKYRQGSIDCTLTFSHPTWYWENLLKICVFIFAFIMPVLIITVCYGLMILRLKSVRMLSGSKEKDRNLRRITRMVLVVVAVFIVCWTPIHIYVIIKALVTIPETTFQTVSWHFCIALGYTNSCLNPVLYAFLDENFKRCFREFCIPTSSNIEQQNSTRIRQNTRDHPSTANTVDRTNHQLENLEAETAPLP
UniProt P41143, whole entry, looked up: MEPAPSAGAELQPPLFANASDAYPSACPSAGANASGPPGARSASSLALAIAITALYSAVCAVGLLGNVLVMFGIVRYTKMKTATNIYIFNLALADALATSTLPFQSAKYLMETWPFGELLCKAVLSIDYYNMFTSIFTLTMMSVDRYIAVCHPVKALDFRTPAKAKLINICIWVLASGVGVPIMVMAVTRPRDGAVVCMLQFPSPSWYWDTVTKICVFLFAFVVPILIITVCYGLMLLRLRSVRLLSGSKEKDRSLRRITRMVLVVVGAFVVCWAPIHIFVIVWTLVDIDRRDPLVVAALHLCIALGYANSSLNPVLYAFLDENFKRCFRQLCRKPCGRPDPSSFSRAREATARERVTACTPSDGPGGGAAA

Columns and labels:
[1] = target: Kappa-type opioid receptor (Homo sapiens, UniProt P41145)
Mu-type opioid receptor = Mu-type opioid receptor (Homo sapiens, UniProt P35372); experiment: Inhibitory constant against human Opioid receptor mu 1 using [3H]diprenorphine as radio ligand
[2] = target: Delta-type opioid receptor (Homo sapiens, UniProt P41143); experiment: Inhibitory constant against human Opioid receptor delta 1 using [3H]diprenorphine as radio ligand

Row | SMILES | pEC50 [1] | pKi (Mu-type opioid receptor) | pKi [2]
1 | CN(C(=O)Cc1ccccc1)[C@H](CN1CCCC1)c1ccccc1 | 7.30 | – | –
2 | CN(C(=O)Cc1ccc(Cl)c(Cl)c1)[C@H](CN1CCCC1)c1ccccc1 [ICI-199,441] | 9.52 | 7.28 | 7.62

pEC50, pKi: −log10 of the molar value.
